Assay [1] concerns the target full-length recombinant rat vitamin D receptor (Rattus norvegicus, UniProt P13053). As to conditions: FIG. 1.
The test system of another assay is HL-60 cells. Kind of assay: HL-60 differentiation (nitro blue tetrazolium reduction). It is filed as cell-based, human. As to conditions: compared to 1,25(OH)2D3. On the procedure:
The study drugs were dissolved in ethanol and the concentrations determined using UV spectrophotometry. Serial dilutions were prepared so that a range of drug concentrations could be tested without changing the final concentration of ethanol (≦0.2%) present in the cell cultures.
Human promyelocytic leukemia (HL60) cells were grown in RPMI-1640 medium containing 10% fetal bovine serum. The cells were incubated at 37° C. in the presence of 5% CO2.
HL60 cells were plated at 1.2×10^5 cells/ml. Eighteen hours after plating, cells in duplicate were treated with drug. Four days later, the cells were harvested and a nitro blue tetrazolium reduction assay was performed (Collins et al., 1979; J. Exp. Med. 149:969-974). The percentage of differentiated cells was determined by counting a total of 200 cells and recording the number that contained intracellular black-blue formazan deposits. Verification of differentiation to monocytic cells was determined by measuring phagocytic activity (data not shown).

By UniProt entry, the sequences of proteins in these tests, tags left out. Where a name states a change or a piece, a line headed by the entry shows the natural chain unless it says otherwise.
UniProt P13053: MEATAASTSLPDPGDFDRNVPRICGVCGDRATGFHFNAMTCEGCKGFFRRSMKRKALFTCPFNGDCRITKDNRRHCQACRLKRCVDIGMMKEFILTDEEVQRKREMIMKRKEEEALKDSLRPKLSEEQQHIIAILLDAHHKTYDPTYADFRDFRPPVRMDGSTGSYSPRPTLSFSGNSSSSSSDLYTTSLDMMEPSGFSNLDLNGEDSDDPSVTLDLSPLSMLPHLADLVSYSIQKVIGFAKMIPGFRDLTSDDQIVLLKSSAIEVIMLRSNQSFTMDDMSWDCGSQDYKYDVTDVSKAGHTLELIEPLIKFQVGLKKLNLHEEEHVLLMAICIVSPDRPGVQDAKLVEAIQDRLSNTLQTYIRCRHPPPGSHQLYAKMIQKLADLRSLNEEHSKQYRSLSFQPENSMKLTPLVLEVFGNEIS

Take `C=C1[C@H](O)CC(=C/C=C2\CCC[C@@]3(C)C2CC[C@@H]3[C@@H](C)CCC[C@H](C)O)C[C@H]1O` (stereo partly drawn) [A4, 2-methylene-(20S,25S)-19,26-dinor-1α,25-dihydroxyvitamin D3]: the “affinity to the nuclear vitamin D receptor compared to 1,25-(OH)2D3” value in assay [1] was “nearly the same affinity”. The “potency on HL-60 cell differentiation relative to 1,25(OH)2D3 (times more potent)” value in the assay on HL-60 cells was “about 10 times”.

For the origin of these results see US7947666B2, “2-methylene-(20S,25S)-19,26-dinor-vitamin D analogs” (Wisconsin Alumni Research Foundation, priority 2007, dated 2011).
